miR-21 FLuc = miR-21 reporter, rising signal. HeLa miR-21 FLuc reporter, luciferase, 48 h. Potency, µM (highest dose often 38.3 µM), for the others: at the highest dose reporter change, positive = more light. 340,000 tested, under 10 active. AID 2288; active = well fitted rising curve with a large enough effect; inconclusive = small, poorly fitted or top-dose-only effect; inactive = no such curve, though single readings can be large or run the other way;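 further: % of control where 0% means no effect; miR-21 action dims this reporter so a rising signal means less miR-21 action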
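Compounds were titrated across several concentrations (up to approximately 40 uM) and incubated 48 hours with HeLa miR-21-FLuc reporter cells (miR-21 target sequence downstream of FLuc, endogenous miR-21). Readout was firefly luciferase luminescence after lytic detection reagent.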
Nrf2 activator = activates Nrf2 signaling. AID 624171. 410,000 tested, 0.31% active. AREc32 ARE-luciferase reporter (MCF7-derived line), luminescence, 24 h. Potency, µM (top dose mostly 46.1 µM), for the others: at the highest dose activation, usual class: activators; further: potency means the concentration at half of the fitted maximal effect; % of control where 0% means no effect; nearly all actives have a fitted effect of over 65% in size
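Luciferase luminescence (Steady-Glo, 30 min at room temperature) served as the read-out of ARE activation in AREc32 cells treated with compounds for 24 hr at 37 deg C.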
A549 viability = kills or reduces viability of A549 cells in Nrf2 counter-screen; A549 ARE-Fluc cells, CellTiter-Fluor viability, 18-24 h; Potency, µM (doses to about 46 µM), for the others: at the top dose activity change, negative = cytotoxicity, hits mostly inhibitors; 390,000 tested, 0.16% active; further: potency means the concentration at half of the fitted maximal effect; on the % scale 0 is the no-effect control and ±100 the full control effect
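A549 ARE-Fluc cells in 5% FBS OPTI-MEM, 5000 cells/well, rested 2 h then exposed to compounds in concentration-response for 18-24 h at 37 °C. Viability by CellTiter-Fluor fluorescence (Ex 405/Em 525) after 30 min; luciferase luminescence (BugLite, 15 min, RT) read afterwards.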
Mito fusion yeast = blocks mitochondrial division or promotes mitochondrial fusion. S. cerevisiae fusion-defective mutant growth rescue, CellTiterGlo 48 h. Potency, µM (titrated, usually from 46.1 µM), inactives show at the highest dose growth rescue (activation), most hits filed as activators. 320,000 tested, 0.23% active. AID 485298; further: potency means the concentration at half of the fitted maximal effect; % of control where 0% means no effect; nearly all actives have a fitted effect of over 45% in size
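Temperature-sensitive fusion-defective S. cerevisiae (e.g. fzo1-1, mgm1-5) were grown with compound in YPEG medium (3% ethanol, 3% glycerol) for 48 hours at 37C. Growth rescue was measured as viability by CellTiterGlo luminescence after 10 minutes at ambient.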
Nrf2 block = inhibitors of Nrf2 signaling; 360,000 tested, 2.1% active; AID 504444; A549 ARE-Fluc reporter, luciferase luminescence, 18-24 h; Potency, µM (titrated, usually from 46 µM), for inactives: at the top dose activity change, negative = inhibition, usual class: inhibitors; further: potency means the concentration at half of the fitted maximal effect; on the % scale 0 is the no-effect control and ±100 the full control effect; nearly all actives have a fitted effect of over 60% in size
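Nrf2 activity is the BugLite luminescence, read 15 min after reagent at room temperature, following CellTiter-Fluor cytotoxicity readout (30 min, 37C). Compound titrations were applied for 18-24 h to 5000 A549 ARE_Fluc cells/well in 5% FBS OPTI-MEM.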
The depositor's hits bear a star; [ ] = another dose, or the depositor's remark. In the library only some 2.3% were active in any assay of this set; here they are far more common. Unless noted, the call rests on the fitted dose curve; in most records, active means well fitted curve in the direction sought with a large enough effect; inconclusive means small, poorly fitted or top-dose-only effect, or another doubt; inactive means no such curve, though single readings can be large; an effect the other way counts as inactive or inconclusive.

`Cc1cccc(NC(=O)CSc2nc3ccccc3c(=O)n2C)c1C` gave Nrf2 activator -1%.
Screening Cc1cc2c(=O)n(C)c(SCC(=O)Nc3cccc(O)c3)nc2s1 returned miR-21 FLuc 0%, Nrf2 activator 9%, A549 viability 5%, Mito fusion yeast 0% and Nrf2 block 8%.
`CCc1ccc(NC(=O)CC2C(=O)N(c3ccccc3)C(=O)N2C(C)C)cc1` (stereo not drawn) gave miR-21 FLuc -49%, Nrf2 activator 5%, A549 viability 0% and Nrf2 block inconclusive.
Screening CCOC(=O)c1ccc(NC(=O)CSc2nc3cccnc3n2C)cc1 returned miR-21 FLuc 1%, Nrf2 activator 0%, A549 viability -8%, Mito fusion yeast -2% and Nrf2 block 21µM*.
For CCOc1ccccc1NC(=O)C1CCCN1S(=O)(=O)c1ccc2nc(-c3ccccc3)[nH]c2c1 (stereo not drawn) the results were miR-21 FLuc 27%, Nrf2 activator 4%, A549 viability -2% and Nrf2 block inconclusive.
COc1cc(CCNC2=CC(=O)c3ncccc3C2=O)ccc1O was read as Nrf2 activator -3%, A549 viability 16µM* and Nrf2 block 13µM*.
Screening O=C(CNC(=O)c1cccc(OC(F)F)c1)Nc1ccc(Cl)cc1 returned miR-21 FLuc -1%, Nrf2 activator 0%, A549 viability -8%, Mito fusion yeast inconclusive and Nrf2 block 26µM*.
Screening CC(C)c1nnc(NC(=O)C2CCN(C(=O)C(C)(C)C)CC2)s1 returned A549 viability 10% and Nrf2 block -10%.
`Nc1ccc(Cn2ccc3c4c(N)nc(N)nc4ccc32)cc1` gave Nrf2 activator 17%, A549 viability -15% and Nrf2 block 0.82µM*.
Screening O=C(COc1ccc(Cl)cc1Cl)NCC1(N2CCOCC2)CCCCC1 returned Nrf2 activator 0%, A549 viability 0% and Nrf2 block 23µM*.
Cc1ccc(-c2nnc(Sc3nc4ccccc4o3)c3ccccc23)cc1 was read as miR-21 FLuc 29%, Nrf2 activator 2%, A549 viability -2%[1.84 µM], Mito fusion yeast 2% and Nrf2 block -21%.
Clc1ccc(-c2nnc(Sc3nc4ccccc4o3)c3ccccc23)cc1 was read as miR-21 FLuc -14%, Nrf2 activator inconclusive, A549 viability -26%, Mito fusion yeast -3% and Nrf2 block 18µM*.
COc1ccc(CN(C(=O)Nc2cccc(Cl)c2)c2ccccn2)cc1OC was read as miR-21 FLuc 5%, Nrf2 activator 7%, A549 viability -14% and Nrf2 block -5%.
COc1ccccc1OCC(=O)N(Cc1ccc(Cl)cc1)CC1CCCO1 (stereo not drawn) was read as miR-21 FLuc -6%, Nrf2 activator 4%, A549 viability -1% and Nrf2 block -19%.
`CCN1CCN(c2c(S(=O)(=O)c3ccc(OC)cc3)cnc3cc(OC)c(OC)cc23)CC1` gave miR-21 FLuc 20%, Nrf2 activator 0%, A549 viability -11% and Nrf2 block 5%.
Screening COc1cc2ncc(S(=O)(=O)c3ccccc3)c(N3CCCC(C)C3)c2cc1OC (stereo not drawn) returned miR-21 FLuc 15%, Nrf2 activator -5%, A549 viability inconclusive, Mito fusion yeast 23% and Nrf2 block 23µM*.
Screening COc1cc(OC)c2ccc(=O)oc2c1C(CCN1CCCC1)c1ccc2c(c1)OCO2 (stereo not drawn) returned miR-21 FLuc -2%, Nrf2 activator 1%, A549 viability 18µM*, Mito fusion yeast -11% and Nrf2 block 11%.
`COc1ccc(C(CCN2CCOCC2)c2c(OC)cc(OC)c3ccc(=O)oc23)cc1` (stereo not drawn) gave Nrf2 activator 4%, A549 viability 15µM* and Nrf2 block -4%.
For CSc1ncc(CN2CCCC(C(=O)c3ccc(C(C)(C)C)cc3)C2)cn1 (stereo not drawn) the results were miR-21 FLuc -37%, Nrf2 activator 9%, A549 viability -4%, Mito fusion yeast 13µM* and Nrf2 block inconclusive.
For CSc1ncc(CN2CCCC(C(=O)Nc3ccc(-c4ccco4)cc3)C2)cn1 (stereo not drawn) the results were miR-21 FLuc -2%, Nrf2 activator inconclusive, A549 viability 0%, Mito fusion yeast -1% and Nrf2 block -2%.
For CC(C)c1ccc(Nc2sc(C(=O)c3ccccc3)c(N)c2S(=O)(=O)c2ccccc2)cc1 the results were miR-21 FLuc 28%, Nrf2 activator -1% and A549 viability -6%.
Cc1ccc(N=c2oc3cc(O)ccc3cc2C(N)=O)cc1 was read as miR-21 FLuc 24%, Nrf2 activator 0%, A549 viability 2%, Mito fusion yeast -12% and Nrf2 block 21µM*.
CC(C)OC(=O)c1c(-c2ccccc2)c(-c2ccccc2)nn(C)c1=O was read as miR-21 FLuc 12µM*, Nrf2 activator 4%, A549 viability -4% and Nrf2 block 9.2µM*.
For O=C(c1cc(-c2ccc(Br)cc2)n[nH]1)N1CCN(C(=O)c2ccccc2Br)CC1 the results were miR-21 FLuc -3%, Nrf2 activator 6%, A549 viability -14%, Mito fusion yeast -9% and Nrf2 block 26µM*.
`COc1ccc(S(=O)(=O)N2CCN(C(=O)c3cc(-c4ccc(Br)cc4)n[nH]3)CC2)cc1OC` gave miR-21 FLuc inconclusive, Nrf2 activator 3%, A549 viability -13%, Mito fusion yeast 3% and Nrf2 block 21µM*.
Screening COc1cccc(C2c3c(ncn(-c4cccc(C#N)c4)c3=N)Oc3ccc4ccccc4c32)c1 (stereo not drawn) returned A549 viability -1% and Nrf2 block inconclusive.
Screening C=C(C)Cn1c(N2CC(C)CC(C)C2)nc2c1c(=O)[nH]c(=O)n2C (stereo not drawn) returned miR-21 FLuc -1%, Nrf2 activator -1%, A549 viability -10%, Mito fusion yeast 25µM* and Nrf2 block -12%.
For C=C(C)Cn1c(NCCOC)nc2c1c(=O)[nH]c(=O)n2C the results were miR-21 FLuc -1%, Nrf2 activator 0%, A549 viability 0%, Mito fusion yeast -2% and Nrf2 block -2%.
O=S(Cc1ccc(Br)cc1)Cc1nnc(SCc2ccc(Cl)cc2)n1-c1ccccc1 (stereo not drawn) was read as miR-21 FLuc inconclusive, Nrf2 activator 3%, A549 viability inconclusive, Mito fusion yeast -14% and Nrf2 block 16µM*.
Screening O=C(CSc1nnc(CCc2ccccc2)n1-c1ccc(Cl)cc1)c1ccccc1 returned miR-21 FLuc -3%, Nrf2 activator 4%, A549 viability inconclusive, Mito fusion yeast inconclusive and Nrf2 block 23µM*.

Three compounds from above, sorted by number of heavy atoms, high to low.
O=S(Cc1ccc(Br)cc1)Cc1nnc(SCc2ccc(Cl)cc2)n1-c1ccccc1 (stereo not drawn) was read as miR-21 FLuc inconclusive, Nrf2 activator 3%, A549 viability inconclusive, Mito fusion yeast -14% and Nrf2 block 16µM*.
For CSc1ncc(CN2CCCC(C(=O)Nc3ccc(-c4ccco4)cc3)C2)cn1 (stereo not drawn) the results were miR-21 FLuc -2%, Nrf2 activator inconclusive, A549 viability 0%, Mito fusion yeast -1% and Nrf2 block -2%.
CC(C)OC(=O)c1c(-c2ccccc2)c(-c2ccccc2)nn(C)c1=O was read as miR-21 FLuc 12µM*, Nrf2 activator 4%, A549 viability -4% and Nrf2 block 9.2µM*.

Assay outcomes from PubChem.
